Assay results taken from patent US20200339509A1, “Non-Coordinating Anion Type Indolinium Activators in Aliphatic and Alicyclic Hydrocarbon Solvents” (ExxonMobil Chemical Patents Inc., priority 2019, published 2020).

Assay: Solubility study of the activators (saturated solution in aliphatic/alicyclic solvent)
Format: physicochemical
Conditions: 25° C., concentration of saturated solution; for Solubility limit in MeCy: MeCy (methylcyclohexane)
Description: The solubility was determined using a saturated solution of the activator prepared by slowly adding the solvent to a pre-weighed amount of the activator. The final volume was determined as the minimum amount of solvent required to convert the heterogenous mixture into a homogeneous solution. The concentration of the saturated solution is presented in millimoles of activator per liter of solution (mM). Alternatively, a mixture of the activator was prepared by adding the solvent to an excess amount of activator. The resulting slurry was separated from the undissolved solids by decanting the mixture into a tared vial. Solvent was then added dropwise until the mixture became a homogeneous solution. The mass of the final solution was measured and then the solvent was evaporated to dryness to obtain the mass of the activator. The concentration of the saturated solution is presented in millimoles of activator per liter of solution (mM).
It was further discovered that adding or increasing the length of aliphatic branches to the indoline ring further increases the solubility of the activator.

1-methylindolinium tetrakis(heptafluoronaphthalen-2-yl)borate [MIH-BF28]
Solubility limit in MeCy: <100 µM
Solubility limit in i-hexane: <100 µM

N,N-dimethyl anilinium tetrakis(heptafluoronaphthalen-2-yl)borate [DMAH-BF28, reference compound]
Solubility limit in MeCy: <100 µM
Solubility limit in i-hexane: <100 µM
